Source: PubChem BioAssay AID624204 (Sanford-Burnham Center for Chemical Genomics, 2012)
This is a selection; strong and weak results do not stand in their true shares. The source made the active and inactive calls.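 Rule for the calls: active = inhibition at least 30% at 10 µM, raw YFP signal under a set limit, fluorescence ratio 0.5 to 1.5; inactive = the rest.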

Protein sequences, listed by entry. Tags and fused reporters are not part of them. Lines headed by an entry give the natural chain unless they say otherwise; changes in a name come on top.
UniProt Q9P0U3: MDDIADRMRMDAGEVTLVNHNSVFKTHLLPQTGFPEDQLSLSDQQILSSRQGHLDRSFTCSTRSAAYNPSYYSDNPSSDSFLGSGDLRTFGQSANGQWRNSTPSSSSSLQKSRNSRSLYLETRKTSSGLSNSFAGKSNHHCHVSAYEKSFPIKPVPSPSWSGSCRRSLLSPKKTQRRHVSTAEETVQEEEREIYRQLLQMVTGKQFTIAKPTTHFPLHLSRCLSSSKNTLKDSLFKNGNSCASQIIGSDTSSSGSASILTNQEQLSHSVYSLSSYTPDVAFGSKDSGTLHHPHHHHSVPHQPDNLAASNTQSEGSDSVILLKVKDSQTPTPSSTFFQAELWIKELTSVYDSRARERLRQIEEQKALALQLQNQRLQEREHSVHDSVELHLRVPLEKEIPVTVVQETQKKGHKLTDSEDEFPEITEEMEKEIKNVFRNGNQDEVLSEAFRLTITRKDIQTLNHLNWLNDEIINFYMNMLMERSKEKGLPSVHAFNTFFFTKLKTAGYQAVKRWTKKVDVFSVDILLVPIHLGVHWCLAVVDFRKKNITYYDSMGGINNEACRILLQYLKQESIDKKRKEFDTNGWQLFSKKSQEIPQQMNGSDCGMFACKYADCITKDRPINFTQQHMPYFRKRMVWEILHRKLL

biological target: Sentrin-specific protease 1 (Homo sapiens) (UniProt Q9P0U3); assay: blockers of SENP1 SUMO protease activity – biochemical, FRET, uHTS, primary screen (AID 624204); details: recombinant SENP1 catalytic domain, CyPet-SUMO1-YPet FRET cleavage; at 10 µM; hits give high values;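 note: 0% = enzyme with DMSO and 100% = no enzyme wells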
Summary of the method: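 Assay system: hSENP1 catalytic domain, recombinant. Amount: SENP1 enzyme, 20 pM final. Schedule: 50 min reaction, RT, dark. Technique: FRET, CFP and YFP emission. Control set: no-enzyme wells low, DMSO-plus-enzyme wells high control.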

SMILES	inhibition
c1nnnn1CCn1cnnn1	inactive: 2.69%
CC(C)C(=O)NC(Sc1ccccc1)C(Cl)(Cl)Cl (stereo unspecified)	inactive: 0.689%
O=P(Nc1nccs1)(c1ccccc1)c1ccccc1	inactive: 3.44%
C[C@H]1OP(=O)(Oc2ccccc2)[C@H](O)[C@H](O)[C@H]1N=[N+]=[N-] (stereo partly specified)	inactive: -1.33%
O=P(Nc1nc2ccccc2s1)(c1ccccc1)c1ccccc1	inactive: 1.2%
Nc1ccc(CCCCOc2ccccc2)cc1	inactive: -0.0909%
COc1ccc(N)c([N+](=O)[O-])c1[N+](=O)[O-]	inactive: 3.94%
O=P(Nc1ccccn1)(c1ccc(Br)cc1)c1ccc(Br)cc1	inactive: 0.118%
CN(C)C1(CNC(=O)c2ccc(Cl)c(S(N)(=O)=O)c2)CCCCC1	inactive: 2.27%
Nc1ccc([As](=O)(O)c2ccc([N+](=O)[O-])cc2)cc1	inactive: 1.16%
C(Cc1nn[nH]n1)Cc1nn[nH]n1	inactive: 2.23%
O=C(OC1CN2CCC1CC2)c1cccc(Cl)c1 (stereo unspecified)	inactive: 1.51%
O=[N+]([O-])c1ccc(O)c(/C=N/Nc2ccc([N+](=O)[O-])cc2[N+](=O)[O-])c1	inactive: 1.28%
O=[N+]([O-])c1ncn(CCn2cnc([N+](=O)[O-])n2)n1	inactive: 1.45%
CC(=O)NC(SC(=S)N(C)C)C(Cl)(Cl)Cl (stereo unspecified)	inactive: 2.95%
O=[As](O)(c1ccccc1)c1ccc(O)cc1	inactive: 0.059%
O=P1(N(CCCl)CCCl)OCCC2CCCCN21 (stereo unspecified)	inactive: 1.27%
CCNC(=S)/N=C(\N)N[N+](=O)[O-]	inactive: 3.6%
O=C(NC1CCS(=O)(=O)C1)NP(=S)(Oc1ccccc1)Oc1ccccc1 (stereo unspecified)	inactive: -2.45%
Cc1ccc(NP(=O)(Oc2cccc(C)c2)Oc2cccc(C)c2)nc1	inactive: -1.04%
c1ccc(-c2nn[nH]n2)c(-c2nn[nH]n2)c1	inactive: -1.97%
CN(C)C(=O)Oc1noc2ccccc12	inactive: -0.859%
O=c1c2cc([N+](=O)[O-])ccc2[nH]c2c([N+](=O)[O-])cc([N+](=O)[O-])cc12	active: 56.2%
Cc1ccccc1OP(=O)(Nc1ccccn1)Oc1ccccc1C	inactive: 1.45%
CC(NC(=O)COC(=O)C(O)(c1ccccc1)c1ccccc1)c1ccccc1 (stereo unspecified)	inactive: 2.46%
Cc1ccc(OP(=O)(Nc2ccccn2)Oc2ccc(C)cc2)cc1	inactive: -1.1%

SMILES	inhibition
CC(=O)NC(SC(=S)N(CC(C)C)CC(C)C)C(Cl)(Cl)Cl (stereo unspecified)	inactive: 1.05%
COC(=O)c1cc2c(s1)N=C(c1ccccc1)N(C)P2(=O)N1CCOCC1 (stereo unspecified)	inactive: 0.554%
CCC(=O)N1C2C3N(C(=O)CC)C1C1N(C(=O)CC)C(C(N1C(=O)CC)N3C(=O)CC)N2C(=O)CC	inactive: -0.849%
O=C(OC1CN2CCC1CC2)c1ccccc1 (stereo unspecified)	inactive: -3.55%
CCc1cc(O)c([N+](=O)[O-])c(C)c1[N+](=O)[O-]	inactive: -0.719%
CC(C)(C)C(=O)NC(Sc1ccccc1)C(Cl)(Cl)Cl (stereo unspecified)	inactive: 0.112%
CCOc1ccc(C2=NCC(CBr)S2)cc1 (stereo unspecified)	inactive: 1.75%
O=P1(Nc2nc3ccc(Cl)cc3s2)COc2ccccc2O1 (stereo unspecified)	inactive: 0.735%
CC(=O)Nc1ccc(Oc2c([N+](=O)[O-])cc([N+](=O)[O-])cc2[N+](=O)[O-])cc1	inactive: 2.53%
CC(=O)Nc1ccc([As](=O)(O)O)c(O)c1	inactive: 3.39%
COC(=O)C1(C)COP(=O)(NCc2ccccc2)OC1 (stereo unspecified)	inactive: 2.44%
N#C/C(=C\c1ccc(N(CCBr)CCBr)cc1)C(N)=O	inactive: -56.1%
CC(=O)c1ccc(N2CC2c2ccncc2)cc1 (stereo unspecified)	inactive: -15.8%
C[C@@H]1C=CCP(=O)(Oc2ccccc2)O1 (stereo partly specified)	inactive: 5.32%
C[C@H]1OP(=O)(Oc2ccccc2)C[C@@H]2O[C@@H]21 (stereo partly specified)	inactive: 0.876%
Cc1ccccc1CN(C)C(=O)COC(=O)C(O)(c1ccccc1)c1ccccc1	inactive: -0.816%
Cc1ccc(OP(=O)(Nc2nccs2)Oc2ccc(C)cc2)cc1	inactive: 0.937%
COc1ccccc1OP(=O)(Nc1ccc(C)cn1)Oc1ccccc1OC	inactive: 0.824%
Clc1ccc(Cl)c(NC2=NCC(CBr)S2)c1 (stereo unspecified)	inactive: -1.65%
CN1CCCC(OC(=O)C(c2ccccc2)c2ccccc2)C1 (stereo unspecified)	inactive: 0.29%
NC(=O)c1cc([N+](=O)[O-])cc([N+](=O)[O-])c1N	inactive: 0.708%
Cc1ccc(N/C(=N/P(=O)(N2CCOCC2)N2CCOCC2)N2CCOCC2)cc1	inactive: 2.46%
CN(C(=O)Cc1ccc(Cl)c(Cl)c1)[C@H]1CCCC[C@H]1N1CCCC1	inactive: 0.363%
O=[N+]([O-])C1C(O)C(O)C([N+](=O)[O-])C(O)C1O (stereo unspecified)	inactive: 0.721%
CC(C)CC(=O)NC(Sc1ccc(Cl)cc1)C(Cl)(Cl)Cl (stereo unspecified)	inactive: 0.28%
Nc1cc(N)c2nonc2c1[N+](=O)[O-]	inactive: -8.06%

SMILES	inhibition
O=C(NC(Sc1ccncn1)C(Cl)(Cl)Cl)c1ccccc1 (stereo unspecified)	inactive: 1.88%
Oc1ccccc1CNc1ccccn1	inactive: 1.64%
Cc1ccc(NP(=O)(Oc2ccccc2F)Oc2ccccc2F)nc1	inactive: 0.797%
CN(C(=O)Cc1ccc(Cl)c(Cl)c1)[C@H]1CCCC[C@@H]1N1CCCC1	inactive: 2.17%
CCOP(=O)(Nc1ccccc1)OCC	inactive: 0.779%
Cc1cc(SC(NC(=O)c2ccc(F)cc2)C(Cl)(Cl)Cl)ncn1 (stereo unspecified)	inactive: 4.12%
CCCC1OP(N)(=O)OCC1CC (stereo unspecified)	inactive: -1.25%
O=C(O)c1ccccc1[As](=O)(O)O	inactive: 2.58%
CC(=O)Nc1ccc([As](=O)(O)O)cc1	inactive: 0.9%
CN(C)P(=O)(N(C)C)n1c(Nc2ccccc2)nnc1-c1ccccc1	inactive: 0.103%
O=P(Nc1nc2ccc(Cl)cc2s1)(c1ccccc1)c1ccccc1	inactive: 2.53%
CCN(N=Nc1nonc1N)c1nonc1N	inactive: 2.2%
Nc1cccc2ccc([As](=O)(O)O)cc12	inactive: -5.06%
O=C(Nc1cc([As](=O)(O)O)ccc1O)c1ccccc1	inactive: 0.838%
O=P1(N(CCCl)CCCl)OCCCS1 (stereo unspecified)	inactive: -0.166%
O=[N+]([O-])c1cccc(NC2=NCC(CBr)S2)c1 (stereo unspecified)	inactive: 0.819%
COC(=O)C1(C)COP(=O)(Nc2ccccc2)OC1 (stereo unspecified)	inactive: 2.34%
O=C(O)CNc1ccc([As](=O)(O)O)cc1	inactive: 0.0631%
CC(C)(C)C(=O)NC(Sc1ccncn1)C(Cl)(Cl)Cl (stereo unspecified)	inactive: -1%
O=[N+]([O-])c1ncn(CCn2ncnc2[N+](=O)[O-])n1	inactive: 1.65%
O=[N+]([O-])c1cccc2n[nH]nc12	inactive: -0.0314%
CC(=O)N1C2C3N(C(C)=O)C1C1N(C(C)=O)C(C(N1C(C)=O)N3C(C)=O)N2C(C)=O	inactive: 2.64%
CCc1nc2c(n1)c1c(non1O)c1c2no[n+]1[O-]	inactive: 4.72%
O=[N+]([O-])c1cc([N+](=O)[O-])c(CCNc2ccccc2)c([N+](=O)[O-])c1	inactive: 5.16%
Cc1ccc(NP(=O)(Oc2ccccc2)Oc2ccccc2)nc1	inactive: -0.617%
COc1ccc(C2=NCC(CBr)S2)cc1 (stereo unspecified)	inactive: -1.04%

SMILES	inhibition
CN(C)C(=O)OCCc1n(C)cc[n+]1C	inactive: -0.0113%
CC(C)=N/N=C(\N)N[N+](=O)[O-]	inactive: 3.42%
CC(C)c1nc(Nc2ccccc2)n(P(=O)(N(C)C)N(C)C)n1	inactive: 0.419%
c1cc(-c2nn[nH]n2)ccc1-c1nn[nH]n1	inactive: 1.45%
CC1CCN(C(=O)Oc2c(Cl)cc(Cl)c3cccnc23)CC1	inactive: -0.788%
C[N+]1=C2C=CC=CC=C2SC12C([N+](=O)[O-])=CC([N+](=O)[O-])=C[C-]2[N+](=O)[O-] (stereo unspecified)	inactive: 6.19%
Nc1ccc([As](=O)(O)c2ccc(N)cc2)cc1	inactive: 2.87%
CCN(/C(=N/P(=O)(N1CCOCC1)N1CCOCC1)N1CCOCC1)c1ccc(OC)cc1	inactive: 1.16%
O=C(Nc1ccncc1[N+](=O)[O-])c1ccc([N+](=O)[O-])cc1[N+](=O)[O-]	inactive: 1.55%
O=C(COc1ccccc1)OC1CN2CCC1CC2 (stereo unspecified)	inactive: -0.191%
O=C(O)C(=O)c1ccc(N(CCCl)CCCl)cc1	inactive: 0.328%
COC(=O)C1(C)COP(=O)(N2CCCC2)OC1 (stereo unspecified)	inactive: -1.31%
COP1(=S)c2c(C)nn(CCC#N)c2N=C(c2ccc(F)cc2)N1C (stereo unspecified)	inactive: -0.201%
CCC(C)N(CC(C)C)C(=S)SC(NC(C)=O)C(Cl)(Cl)Cl (stereo unspecified)	inactive: 0.852%
CCOC(=O)c1ccc(NC(=O)C(C)(CCl)SC)cc1 (stereo unspecified)	inactive: 0.392%
CSc1ccc(Nc2c([N+](=O)[O-])cc([N+](=O)[O-])cc2[N+](=O)[O-])cc1	inactive: 5%
O=C(OC1CN2CCC1CC2)c1cccc([N+](=O)[O-])c1 (stereo unspecified)	inactive: 3%
Cc1cc(SC(NC(=O)c2ccccc2)C(Cl)(Cl)Cl)nc(C(C)C)n1 (stereo unspecified)	inactive: 4.24%
CCCCOc1ccc(C(=O)NCC2(N3CCCCC3)CCCCC2)cc1OC	inactive: -17.1%
COP(=O)(OC)N1CC1c1ccccc1 (stereo unspecified)	inactive: 1.4%
CC1CCNP(=O)(N(CCCl)CCCl)O1 (stereo unspecified)	inactive: 1.69%
CCOC(=O)Nc1ccc([As](=O)(O)O)c(O)c1	inactive: 2.44%
O=C(O)C(O)c1ccc(N(CCCl)CCCl)cc1 (stereo unspecified)	inactive: 2.49%
